# In patent publication US12729245B2, “Compositions and methods for inhibiting T cell exhaustion” (The Board of Trustees of the Leland Stanford Junior …, priority 2017, dated 2026):
# Test: In vivo provision of IL-2 with HA-28z CAR T cells
# Settings: 250,000 IU/mouse IP days 7, 9, 11, 13, 15; 1×10^6 CAR+ T cells IV day 7
# Text: 250,000 IU/mouse was given IP on days 7, 9, 11, 13, and 15 post tumor engraftment. 1×10^6 CAR+ T cells were given IV on day 7.
substance,measurement,value
"IL-2: interleukin-2 given IP to mice, 250,000 IU/mouse",reproduction of the enhanced function of JUN-CAR T cells,can not be reproduced
